Assay results from ChEMBL document CHEMBL1138017, “Synthesis and evaluation of pyridazinylpiperazines as vanilloid receptor 1 antagonists” (Bioorg Med Chem Lett, 2004).

The chains behind the UniProt entries cited, without tags or fusion partners.
UniProt Q8NER1, whole entry: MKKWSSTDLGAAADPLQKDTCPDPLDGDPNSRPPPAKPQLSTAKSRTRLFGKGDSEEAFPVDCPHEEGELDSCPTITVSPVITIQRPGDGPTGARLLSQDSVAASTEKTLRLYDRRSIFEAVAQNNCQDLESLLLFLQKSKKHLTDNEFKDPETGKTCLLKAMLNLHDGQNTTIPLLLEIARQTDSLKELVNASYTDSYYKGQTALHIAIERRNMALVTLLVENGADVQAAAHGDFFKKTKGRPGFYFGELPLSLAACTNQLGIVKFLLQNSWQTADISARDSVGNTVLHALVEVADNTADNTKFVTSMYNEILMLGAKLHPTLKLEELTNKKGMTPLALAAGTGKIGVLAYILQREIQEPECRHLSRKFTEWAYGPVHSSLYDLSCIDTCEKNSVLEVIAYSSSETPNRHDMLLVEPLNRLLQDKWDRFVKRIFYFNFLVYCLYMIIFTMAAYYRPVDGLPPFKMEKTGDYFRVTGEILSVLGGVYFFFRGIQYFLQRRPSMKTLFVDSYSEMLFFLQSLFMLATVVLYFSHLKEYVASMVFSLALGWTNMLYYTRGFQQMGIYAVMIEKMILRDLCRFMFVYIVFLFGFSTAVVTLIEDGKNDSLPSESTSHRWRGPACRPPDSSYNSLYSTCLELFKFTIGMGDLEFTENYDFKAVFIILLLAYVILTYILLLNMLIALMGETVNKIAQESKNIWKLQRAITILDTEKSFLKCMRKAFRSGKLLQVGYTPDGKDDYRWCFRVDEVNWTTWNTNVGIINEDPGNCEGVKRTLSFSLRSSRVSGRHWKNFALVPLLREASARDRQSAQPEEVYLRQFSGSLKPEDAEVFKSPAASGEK

Assays:
[1] = biological target: T1, Transient receptor potential cation channel subfamily V member 1 (Homo sapiens, UniProt Q8NER1); assay: Inhibition of human vanilloid receptor 1 in HEK293 cells in capsaicin-induced FLIPR assay; type: cell-based
Summary of the method: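 Human VR1 stably expressed in HEK293 cells; calcium influx evoked by 100 nM capsaicin, read by FLIPR. IC50 is the mean of at least three determinations.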

[2] = biological target: T1, Transient receptor potential cation channel subfamily V member 1; assay: Inhibition of human vanilloid receptor 1 in HEK293 cells in pH 5.5-induced FLIPR assay; type: cell-based

Row | IC50 [1] [µM] | IC50 [2] [µM] | SMILES
1 | 3.83 | > 10 | CC(C)(C)c1ccc(NC(=O)N2CCN(c3ccc(Cl)nn3)CC2)cc1
2 | 1.62 |  | Cc1cc(N2CCN(C(=O)Nc3nc4ccc(F)cc4s3)[C@H](C)C2)nnc1Cl
3 | 8.59 | > 25 | Cc1cnnc(N2CCN(C(=O)Nc3ccc(C(C)(C)C)cc3)[C@H](C)C2)c1
